We go through one compound from patent US20230128137A1, “BENZO FIVE-MEMBERED CYCLIC COMPOUND” (MEDSHINE DISCOVERY INC., priority 2020, published 2023).

For data set [1] the following is noted: human liver microsomes. Background: Microsomes from liver hold many membrane-bound enzymes, among them those of drug oxidation.
The conditions of data set [2]: CD-1 mouse liver microsomes.

Turning to `O=C(O)Cc1ccccc1Nc1c(Cl)cccc1Cl` [Diclofenac], the T1/2 in data set [1] is listed as 4.5 min. In data set [2], the “CLint(liver)” value was 86.4 mL/min/kg.
